Bioassay records deposited in PubChem by Broad Institute.
EWS-Fli inh = EWS/Fli-driven NR0B1 reporter inhibitors, primary screen, A673 cells, NR0B1 luciferase, luminescence, MLPCN library | viability-normalised | inhibition, % at 12.6 µM | actives 0.67% (n = 350,000) | AID 651661, 2012;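 active = mean inhibition of at least 50% after viability correction, with every replicate also passing that limit; inconclusive = mean reaches 50% but only one of two replicates passes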;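 note: firefly luciferase signal divided by Alamar Blue viability fluorescence both relative to DMSO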
LGR2 inh = inhibitors of bursicon-induced LGR2 CRE-luciferase signal, primary screen, cell-based, HEK293, CRE-luciferase reporter, bursicon stimulation. bursicon-stimulated, 4 h. inhibition, % at 9.99 µM. actives 0.35% (n = 380,000);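 active = drop in luminescence signal, shown as inhibition above about 50% in the replicate tests, limit read from the data, passing the limit was not always enough; inconclusive = probably only some replicates passing the limit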;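 note: agonist challenge used bursicon conditioned medium at about half maximal strength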
Yeast UUG start = modulators of yeast start codon fidelity, primary screen, whole organism, S. cerevisiae, single point, plate reader; S. cerevisiae UUG-firefly luciferase reporter, luminescence/redox ratio; activity score, % at 18.7 µM; 0.13% of 350,000 active; AID 602363, 2012;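 active = replicate mean at a twofold rise or more, about +100% in these data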;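 also: firefly luciferase made from a UUG start codon reports start codon fidelity; reporter light over untreated wells divided by growth signal over untreated wells; some hits fall short of that in this replicate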
F508del corr = F508del CFTR correction, initial screen, CFBE line, single point; activity (quench increase), % at 7.58 µM; CFBE cells, YFP halide quenching; stimulated with forskolin plus potentiator P3; % fluorescence drop versus neutral controls; actives 0.36% (n = 350,000);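 active = mean added fluorescence quench of at least 8% versus neutral control, with both replicates also reaching 8%; inconclusive = only one of the mean or replicate conditions met; inactive = mean below 8% and not both replicates reaching 8%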;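 note: cells transiently co-express mutant CFTR-F508del with the halide-sensitive YFP; corrector assay measuring rescue of mutant channel to the surface after 24 h compound exposure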
miR-122 sensor = miR-122 Renilla sensor signal increase in Huh7, primary screen, miR-122 inhibitor project, cell-based, single point, plate reader. Huh7 miR-122 Renilla luciferase sensor, 48 h; neutral wells = 0, positive control = 100. activation (reporter increase), % at 12.5 µM. actives 0.3% (n = 340,000). AID 602342, 2012;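 active = mean replicate activation score at least 90 and every replicate individually at or above 90; inconclusive = only one of the two criteria met; inactive = neither criterion met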;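 note: higher luciferase means less miR-122 activity so hits act as miR-122 inhibitors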
PglD DTNB = C. jejuni PglD acetyltransferase inhibitors, primary screen, biochemical, DTNB colorimetric, single point. purified PglD enzyme, DTNB colorimetric CoA detection. actives 0.098% (n = 360,000). inhibition, % at 12.5 µM. AID 602405, 2012. UDP-N-acetylbacillosamine N-acetyltransferase PglD (Campylobacter jejuni); in the data active = inhibition above about 16%, passing the limit was not always enough; inconclusive = no clear call, values can overlap the other calls
A number is an active result; . = inactive; ? = inconclusive; / = no result given; [ ] = remark or other dose. Sampled rows, rich in hits. Any-hit rate of the full collection: about 1.3%.

SMILES	EWS-Fli inh	LGR2 inh	Yeast UUG start	F508del corr	miR-122 sensor	PglD DTNB
CC(C)(C)C1COc2ccccc2N1C(=O)c1cccc(Cl)c1 (configuration not stated)	.	.	.	9.5	.	.
COC(=O)CC1COc2ccccc2N1C(=O)c1cccc(Cl)c1 (configuration not stated)	/	/	.	/	.	.
COc1cc(C(O)CO)ccc1O (configuration not stated)	.	/	.	.	.	.
COc1cc(C(O)CO)ccc1OS(=O)(=O)O (configuration not stated)	.	/	.	10.0	.	.
Nc1ncc(S(=O)(=O)c2ccc(Cl)cc2)c(N)n1	.	.	.	.	.	.
COc1ccc(C2CN=NC23CCc2ccccc2C3=O)cc1 (configuration not stated)	.	.	.	15.9	.	.
CCc1cccc(C)c1NC(=O)Cn1nc(C)n2cccc2c1=O	/	.	.	.	.	.
S=C(NCc1ccncc1)Nc1cc(Cl)cc(Cl)c1	.	.	.	.	102.6	.
S=C(NCc1ccncc1)Nc1ccc(Cl)c(Cl)c1	/	.	.	/	.	.
Cc1ccc(/C=C2/CNC/C(=C/c3ccc(C)cc3)C2=O)cc1	52.6	55.1	/	.	.	/
Cc1ccc(/C=C2\CCOC2=O)cc1	.	.	.	.	/	.
COc1ccc(CC(=O)Nc2cccc(-c3nnc(-c4ccccc4)o3)c2)cc1OC	/	102.6	.	/	.	.
COc1ccc(CC(=O)Nc2cccc(-c3nnc(-c4ccc(C)cc4)o3)c2)cc1OC	.	94.2	.	.	.	.
COc1ccc(CC(=O)Nc2cccc(-c3nnc(-c4cccc(C)c4)o3)c2)cc1OC	/	?	.	/	/	.
COc1ccc(S(=O)(=O)N2CCOCC2)cc1C(=O)N(C)Cc1ccco1	.	.	.	.	.	.
Cc1ccc(-c2nnc(N3CCCCC3)c3ccccc23)cc1S(=O)(=O)N1CCN(C)CC1	/	/	/	/	.	/
O=[N+]([O-])c1cccnc1-n1cnc2ccccc21	.	.	/	/	/	/
Cc1cc2ncn(-c3ncccc3[N+](=O)[O-])c2cc1C	58.0	.	.	.	.	.
CCOc1ccc(NCC(=O)N/N=C/C=C/c2ccccc2)cc1	.	.	/	.	/	/
COc1ccc(OCC(=O)N/N=C/C=C/c2ccccc2)cc1	.	.	.	9.0	.	/
CCCCCCCCCCCCCCCC[N+](C)(C)CC	53.0	.	.	.	.	.
COc1ccc(OCC(O)CN2C(=O)NC(C)(C)C2=O)cc1 (configuration not stated)	/	/	.	/	.	.
COc1ccc(S(=O)(=O)N2CCN(Cc3ccco3)CC2)cc1	.	.	.	.	/	.
O=C1C=C(c2ccc3ncccc3c2)C[C@@H](c2ccc3c(c2)OCO3)C1	62.6	.	.	9.8	/	.
COc1ccc(OC)c(N2C(=O)C(Cl)=C(N3CCCCC3)C2=O)c1	/	.	/	/	.	/
SMILES	EWS-Fli inh	LGR2 inh	Yeast UUG start	F508del corr	miR-122 sensor	PglD DTNB
Cc1ccsc1C1Nc2ccc3ncccc3c2C2=C1C(=O)CC(C)(C)C2 (configuration not stated)	/	.	.	/	95.3	.
CCCCCN=Cc1c(C)[nH]n(-c2nc3ccccc3s2)c1=O	/	59.7	.	/	.	.
O=c1c2ccccc2sc2ccc(C#CC3(O)CCCCC3)cc12	89.2	100.3	.	.	/	.
Nc1nc(-c2cc(Cl)cc(Cl)c2OC(F)F)cs1	.	.	/	.	/	/
CC1(C)Cc2ccccc2C(C(Cc2ccccc2)C(N)=O)=N1 (configuration not stated)	.	.	.	.	.	.
CN1C(=O)c2cc(NC(=O)Cc3ccccc3)ccc2OC[C@@H]2O[C@@H](CC(=O)NCc3ccc(Cl)cc3)CC[C@@H]21	.	.	.	.	233.3[16.7 µM]	.
CN1C(=O)c2cc(NC(=O)c3ccc(Cl)cc3)ccc2OC[C@@H]2O[C@H](CC(=O)NCc3cccc(F)c3)CC[C@H]21	.	.	.	12.4	.	.
